Biological target: Jnk3 (Homo sapiens, UniProt P53779)
Conditions: BIRB-TOM tracer at 2 uM, cell-free, FIG. 19

The chains behind the UniProt entries cited, without tags or fusion partners.
UniProt P53779, whole entry, species assumed: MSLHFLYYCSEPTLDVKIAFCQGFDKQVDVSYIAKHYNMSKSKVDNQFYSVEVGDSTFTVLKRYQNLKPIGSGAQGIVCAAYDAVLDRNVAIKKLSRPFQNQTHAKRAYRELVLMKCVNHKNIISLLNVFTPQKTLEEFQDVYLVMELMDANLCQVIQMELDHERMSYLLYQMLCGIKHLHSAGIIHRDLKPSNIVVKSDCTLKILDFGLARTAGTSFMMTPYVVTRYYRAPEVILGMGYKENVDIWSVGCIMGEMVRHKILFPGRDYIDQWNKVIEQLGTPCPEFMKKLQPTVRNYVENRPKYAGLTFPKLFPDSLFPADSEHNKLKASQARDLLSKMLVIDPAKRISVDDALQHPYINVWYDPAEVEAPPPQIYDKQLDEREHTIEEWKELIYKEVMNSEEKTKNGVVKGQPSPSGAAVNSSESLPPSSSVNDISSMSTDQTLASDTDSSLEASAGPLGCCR

Compound: Cc1ccc(-n2nc(C(C)(C)C)cc2NC(=O)Nc2ccc(OCCN3CCOCC3)c3ccccc23)cc1 [BIRB-796]
- affinity by competitive displacement: lower affinity

— patent US10024862B2, “Recognition of cellular target binding by a bioactive agent using intracellular bioluminescence resonance energy transfer” (Promega Corporation, priority 2012, dated 2018)
